From patent US20180186796A1, “COMPOUNDS AND USES THEREOF” (LEAD DISCOVERY SIENA S.R.L., priority 2014, published 2018)
Like-named read-outs stand apart in the source and are kept apart here.

Sequences of proteins named here, by UniProt entry; tags and fusion partners are left off.
UniProt P06241, whole entry, looked up: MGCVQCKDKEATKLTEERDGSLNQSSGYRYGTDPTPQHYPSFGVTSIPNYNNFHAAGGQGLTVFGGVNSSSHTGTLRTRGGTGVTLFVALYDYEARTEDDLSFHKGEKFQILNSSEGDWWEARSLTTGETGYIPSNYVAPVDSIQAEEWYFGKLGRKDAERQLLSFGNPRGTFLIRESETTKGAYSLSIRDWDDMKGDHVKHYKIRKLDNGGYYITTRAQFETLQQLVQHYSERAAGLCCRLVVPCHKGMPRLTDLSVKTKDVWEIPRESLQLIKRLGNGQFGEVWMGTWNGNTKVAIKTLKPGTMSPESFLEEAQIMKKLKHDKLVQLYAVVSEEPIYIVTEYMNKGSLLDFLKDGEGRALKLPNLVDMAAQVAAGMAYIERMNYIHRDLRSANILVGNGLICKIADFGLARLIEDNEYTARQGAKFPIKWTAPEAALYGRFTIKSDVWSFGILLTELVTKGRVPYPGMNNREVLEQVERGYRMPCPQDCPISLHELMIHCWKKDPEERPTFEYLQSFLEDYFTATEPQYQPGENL

Target: recombinant Fyn (Homo sapiens, UniProt P06241)
Test: Enzymatic assay on isolated Fyn kinase
[1] = read-out: Enzymatic Data (Ki, μM) Fyn, mean of at least two experiments

SMILES: CCC(C)Sc1nc(Nc2cccc(Cl)c2)c2cnn(CC(Cl)c3ccccc3)c2n1 (stereo not drawn) [Si148, 6-(Sec-butylthio)-N-(3-chlorophenyl)-1-(2-chloro-2-phenylethyl)-1H-pyrazolo[3,4-d]pyrimidin-4-amine]
- Ki: 7.5 to 16 µM

SMILES: ClC(Cn1ncc2c(Nc3ccccc3)nc(SCCN3CCOCC3)nc21)c1ccccc1 (stereo not drawn) [Si192, 1-(2-chloro-2-phenylethyl)-6-((2-morpholinoethyl)thio)-N-phenyl-1H-pyrazolo[3,4-d]pyrimidin-4-amine, reference compound]
- Ki: 7.5 to 16 µM
- Ki (read-out: Ki Fyn): 7.5 µM

SMILES: Cc1ccc(-c2nn(CC(Cl)c3ccccc3)c3ncnc(N)c23)cc1 (stereo not drawn) [Si309, 1-(2-Chloro-2-phenylethyl)-3-(4-methylphenyl)-1H-pyrazolo[3,4-d]pyrimidin-4-amine]
- Ki (read-out: Ki Fyn): 0.095 µM

SMILES: CCC(C)Sc1nc(Nc2cccc(Cl)c2)c2cnn(CC(Cl)c3ccccc3)c2n1 (stereo not drawn) [drawing 197]
- Ki [1]: 12.5 µM

SMILES: CC(Cn1nc(-c2ccccc2)c2c(N)ncnc21)c1ccccc1 (stereo not drawn) [drawing 204]
- Ki [1]: 3.35 µM
